# Binding of CDR-mutated scFvs to a peptide of the spike HR2 region

Data: MIT Lincoln Laboratory AlphaSeq set, Engelhart et al. 2022, doi:10.1038/s41597-022-01779-4, as distributed in FLAb.

Antigen: PDVDLGDISGINAS, a 14-residue peptide of the SARS-CoV-2 spike HR2 region.

Parent: Ab-95, a human scFv built as VH, three GGGGS repeats, VL. Only the CDRs of the light chain vary.
VH: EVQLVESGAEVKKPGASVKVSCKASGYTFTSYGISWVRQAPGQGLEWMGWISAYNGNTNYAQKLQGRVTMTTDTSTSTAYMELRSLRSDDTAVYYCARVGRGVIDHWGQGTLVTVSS
VL: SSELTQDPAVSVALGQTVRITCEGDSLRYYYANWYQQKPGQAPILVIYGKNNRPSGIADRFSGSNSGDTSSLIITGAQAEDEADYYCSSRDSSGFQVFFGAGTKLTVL

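Phage display of a naive human antibody library on the peptide gave the parent. In library AAYL52, one, two or three CDR residues were substituted; doubles and triples were drawn at random. The scFvs were displayed on barcoded MATa yeast, the peptide on MATalpha yeast. Binding brings cells together so that they mate, and sequencing counts the barcode pairs among the diploids. The ratio of observed to expected reads was calibrated, replicate by replicate, on BCL2-family standards whose Kd was known from biolayer interferometry. Mating was done three times.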

Changes read parent residue, position, new residue, counted from the first residue of the VL shown.
The read-out is the apparent dissociation constant on a log10 scale (nM): the lower, the stronger.
Averages over replicates are reported, and they cover detected replicates only.
"ND" means that the variant was in the library but no mating with the target was seen in that replicate; the authors take this as a sign of poor binding, and no number exists.
Nonspecific signal, from three strains lacking the peptide, appeared in 28% of pairings of library AAYL52, centred on 3.91 (5% of these signals below 2.90); values are not corrected for it. For each scFv, signals with the empty controls are counted beside the result, with their mean in brackets.
For reference, the parent read 2.31 as the reference entry and 2.25 as a member of this library.

changes | log10 Kd (nM) by replicate | mean, log10 nM | empty controls
L27G/S93D/F98C | 3.14 / 3.25 / 2.47 | 2.95 | 5 of 9 (3.19)
N52R/R90S/F95Y | 4.12 / ND / 3.51 | 3.82 | 5 of 9 (3.64)
K50A/S88I/S89D | 4.41 / 4.52 / ND | 4.46 | 2 of 9 (4.22)
R53W/F95K/V97Q | ND / 4.73 / ND | 4.73 | 3 of 9 (4.16)
Y31K/N33H/S92T | 4.26 / ND / 3.05 | 3.65 | 0 of 9
S88F/Q96S/F98P | 3.98 / 3.64 / 4.06 | 3.90 | 0 of 9
S26Y/N33R/G94N | 5.77 / 4.85 / 4.54 | 5.05 | 4 of 9 (4.63)
D91L/F98P | 2.46 / 2.16 / 1.83 | 2.15 | 3 of 9 (3.81)
R28A/S93G | 3.46 / 3.85 / 4.75 | 4.02 | 2 of 9 (3.77)
R90C/D91E/V97N | 2.55 / 2.50 / 2.75 | 2.60 | 2 of 9 (3.53)
D25K/S92W/Q96M | 2.80 / 3.05 / 2.75 | 2.87 | 3 of 9 (3.48)
G24R/D25I/Q96G | ND / ND / ND | ND | 4 of 9 (3.59)
E23H/F95R/F98N | ND / ND / ND | ND | 0 of 9
S26G/L27N/Y29M | 2.64 / 3.91 / 3.04 | 3.19 | 3 of 9 (3.89)
Y30P/R53I/V97M | ND / 5.83 / 3.58 | 4.71 | 2 of 9 (3.78)
A32P/S93A/F98G | 2.82 / 2.33 / 2.61 | 2.58 | 3 of 9 (3.96)
G49M/S55H/R90G | 3.15 / 4.20 / 3.95 | 3.77 | 2 of 9 (3.68)
S55A/R90M/D91Y | ND / ND / ND | ND | 0 of 9
G24E/R90F/F95H | ND / ND / ND | ND | 1 of 9 (2.73)
N52K/S55C/V97S | 3.45 / 3.16 / 2.59 | 3.07 | 3 of 9 (3.85)
N33D/K50L/F95I | ND / 3.29 / ND | 3.29 | 1 of 9 (4.12)
E23N/S88R/D91F | 2.75 / 2.58 / 2.67 | 2.67 | 6 of 9 (3.89)
E23S/S55L/G94H | 2.48 / 2.51 / 2.63 | 2.54 | 2 of 9 (4.18)
S88M/S89I/G94H | 2.29 / 2.42 / 1.68 | 2.13 | 3 of 9 (4.35)
N52K | 2.97 / 3.03 / 2.95 | 2.98 | 6 of 9 (4.33)
N51T/F95Y/V97N | 3.80 / ND / ND | 3.80 | 0 of 9
L27V/G49E/P54A | 3.84 / 4.35 / ND | 4.10 | 0 of 9
Y29V/N51T/S93E | ND / 4.63 / ND | 4.63 | 3 of 9 (4.04)
R90E/F95G | 3.52 / 3.43 / 3.32 | 3.43 | 1 of 9 (3.63)
R28S/R90L/F95A | 2.85 / 2.64 / 2.03 | 2.51 | 2 of 9 (3.02)
S26Q/D91K/S93M | 4.83 / ND / ND | 4.83 | 0 of 9
N51D/P54Y/Q96C | 5.26 / 3.20 / 3.00 | 3.82 | 4 of 9 (4.05)
R28F/G49D/F98L | 3.32 / 3.22 / 3.66 | 3.40 | 5 of 9 (4.10)
G24P/D25N/F95M | ND / ND / 4.35 | 4.35 | 3 of 9 (4.01)
D25A/R28P/K50H | 2.19 / 2.13 / 1.97 | 2.10 | 4 of 9 (4.74)
Y31V/N52H/R90V | 4.82 / 3.31 / 4.64 | 4.26 | 6 of 9 (3.87)
Y31I/N51C | ND / 4.36 / ND | 4.36 | 3 of 9 (3.28)

The closing 5 entries, repeated:

changes | log10 Kd (nM) by replicate | mean, log10 nM | empty controls
R28F/G49D/F98L | 3.32 / 3.22 / 3.66 | 3.40 | 5 of 9 (4.10)
G24P/D25N/F95M | ND / ND / 4.35 | 4.35 | 3 of 9 (4.01)
D25A/R28P/K50H | 2.19 / 2.13 / 1.97 | 2.10 | 4 of 9 (4.74)
Y31V/N52H/R90V | 4.82 / 3.31 / 4.64 | 4.26 | 6 of 9 (3.87)
Y31I/N51C | ND / 4.36 / ND | 4.36 | 3 of 9 (3.28)